Only a part is listed here, and it is no random draw. Active and inactive are the calls of the source.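 How the source made its calls: active means activation above the mean of all tested compounds plus 3 SD (cut at about 5.5% in these data); inactive means the rest.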
system: DAF-12 nuclear receptor (Haemonchus contortus); assay: H. contortus DAF-12 nuclear receptor activators, primary screen, cell-based, luminescence, HEK293, lit1-tk-luc reporter (AID 652067); conditions: HEK293 hcDAF-12 lit1-tk-luc reporter, at 6.8 µM, hits give high values, 0% DMSO, 100% Δ7-dafachronic acid;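 further: 100% = response to 3 µM Δ7-dafachronic acid high control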

Row | Structure (SMILES) | activation
1 | O=[N+]([O-])c1cc([N+](=O)[O-])c(Nc2ccc(Cl)cc2)c([N+](=O)[O-])c1 | inactive: -1.51%
2 | CP(=O)(Nc1ccccc1F)Oc1ccccc1 (centres undefined) | inactive: 0.59%
3 | CC(C)c1ccc(OP(C)(=O)Nc2ccc(SC(F)(F)F)cc2)cc1 (centres undefined) | inactive: -2.26%
4 | CP(=O)(Nc1ccc2c(c1)OCCO2)Oc1ccccc1 (centres undefined) | inactive: -1.28%
5 | Cc1ccccc1NP(C)(=O)Nc1ccccc1C | inactive: -0.92%
6 | O=[N+]([O-])c1cc([N+](=O)[O-])c(C(F)(F)F)c([N+](=O)[O-])c1O | inactive: -0.61%
7 | CP(=O)(Nc1ccc(SC(F)(F)F)cc1)Oc1ccc(F)cc1 (centres undefined) | inactive: -1.43%
8 | CCOP(C)(=S)SCC(=O)NC(C)(CC)C(=O)O (centres undefined) | inactive: -2.04%
9 | CCOP(=O)(CC)OCC | inactive: 1.64%
10 | O=[N+]([O-])c1ccc(OP2(=O)COCCO2)cc1 (centres undefined) | inactive: -0.8%
11 | O=[N+]([O-])c1cc([N+](=O)[O-])c(NCC2CCS(=O)(=O)C2)c([N+](=O)[O-])c1 (centres undefined) | inactive: -4.3%
12 | Cc1cc(-c2cccc3ccccc23)c(C)cn1.O=[N+]([O-])c1cc([N+](=O)[O-])c(O)c([N+](=O)[O-])c1 | inactive: -1.81%
13 | Cc1c(C(c2ccc3c(c2)OCO3)c2c(C)n(C)n(-c3ccccc3)c2=O)c(=O)n(-c2ccccc2)n1C.O=[N+]([O-])c1cc([N+](=O)[O-])c(O)c([N+](=O)[O-])c1 | inactive: -0.37%
14 | COc1ccc(OP(C)(=O)Nc2cccc(Br)c2)cc1 (centres undefined) | inactive: -0.73%
15 | CN(C)CCOC(=O)C(O)(c1ccccc1)C1CCCCC1 (centres undefined) | inactive: -1%
16 | COc1ccc(NP(C)(=O)Oc2ccccc2OC)cc1 (centres undefined) | inactive: -1.25%
17 | Nc1ccc2c(ccc3cccnc32)n1.O=[N+]([O-])c1cc([N+](=O)[O-])c(O)c([N+](=O)[O-])c1 | inactive: 3.02%
18 | CCOC(=O)c1ccc(NP(C)(=O)Oc2ccc(Cl)cc2)cc1 (centres undefined) | inactive: 1.27%
19 | CP(=O)(OC12CC3CC(CC(C3)C1)C2)OC12CC3CC(CC(C3)C1)C2 | inactive: -0.85%
20 | COc1ccccc1OP(C)(=O)Nc1ccccc1Br (centres undefined) | inactive: -2.34%
21 | CC(C)(C)c1ccc(OP(C)(=O)O)cc1 | inactive: -1.83%
22 | CP(=O)(Nc1ccc(Cl)cc1)Oc1ccc(F)cc1 (centres undefined) | inactive: -1.12%
23 | CN(C)C(=O)c1c([N+](=O)[O-])cc([N+](=O)[O-])cc1[N+](=O)[O-] | inactive: -1.99%
24 | CCN(CC)CC(O)COC(=O)C(O)(c1ccccc1)C1CCCCC1 (centres undefined) | inactive: -1.35%
